This is a selection; strong and weak results do not stand in their true shares. Some salts and complexes are drawn in separate pieces, as the source files them; their charges need not balance. Active and inactive are the calls of the source. Calls come from the whole dose curve; as a rule, active = well fitted activation curve with a large enough effect; inconclusive = small, poorly fitted or top-dose-only effect; inactive = no such curve, though single readings can be large or run the other way.
Each compound was assayed against Pyruvate kinase PKM (Homo sapiens) (UniProt P14618) (assay: qHTS Assay for Activators of Human Muscle isoform 2 Pyruvate Kinase). Settings: purified PKM2, Kinase-Glo ATP luminescence, 0% is enzyme alone, no compound; at 57.5 µM (top of the series) unless noted.
Summary of the method: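 Purified hPK-M2 (>95% pure) converted ADP (0.1 mM final) to ATP with 0.5 mM PEP in 50 mM imidazole pH7.2, KCl, MgCl2, Tween 20, BSA; 1 h at room temperature. ATP detected by Kinase-Glo luminescence.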
% is set by controls: 0 for no effect and ±100 for the full control effect.
Note: nearly all actives have a fitted effect of over 55% in size.

Chains of the proteins cited; added tags and fusions are not shown.
UniProt P14618, whole entry: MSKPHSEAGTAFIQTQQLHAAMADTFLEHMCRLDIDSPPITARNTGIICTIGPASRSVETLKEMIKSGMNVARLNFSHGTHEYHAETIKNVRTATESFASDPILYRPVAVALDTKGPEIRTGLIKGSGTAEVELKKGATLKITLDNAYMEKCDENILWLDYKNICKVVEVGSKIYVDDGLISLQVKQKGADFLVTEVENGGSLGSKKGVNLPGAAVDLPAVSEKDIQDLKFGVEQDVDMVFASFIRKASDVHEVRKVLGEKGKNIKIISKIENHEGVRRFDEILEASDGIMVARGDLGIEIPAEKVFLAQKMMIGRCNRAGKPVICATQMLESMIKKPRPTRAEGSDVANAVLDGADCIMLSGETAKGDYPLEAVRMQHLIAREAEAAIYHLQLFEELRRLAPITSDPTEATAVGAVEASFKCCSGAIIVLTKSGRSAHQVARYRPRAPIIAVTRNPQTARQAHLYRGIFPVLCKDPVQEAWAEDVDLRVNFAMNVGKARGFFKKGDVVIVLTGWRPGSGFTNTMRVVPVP

Row | Structure (SMILES) | activation
1 | CSc1ccccc1C(=O)NCC1(N2CCCCC2)CCCCC1 | inactive: 1.58%
2 | O=C(NCC1(N2CCCCC2)CCCCC1)c1ccc(=O)[nH]c1 | inactive: 1.37%
3 | COc1ccc(C(=O)NCC2(N3CCCCC3)CCCCC2)c(OC)c1OC | inactive: -3.38%
4 | COc1ccc(C(=O)NCC2(N3CCCCC3)CCCCC2)cc1 | inactive: -3.65%
5 | COc1ccc2c(c1O)-c1c(O)c(OC)cc3c1[C@H](C2)[N+](C)(C)CC3.O=[N+]([O-])c1cc([N+](=O)[O-])c([O-])c([N+](=O)[O-])c1[O-] | inactive: -3.59%
6 | O=C(OC1CN2CCC1CC2)c1ccc([N+](=O)[O-])cc1 (stereo not given) | inactive: 0.882%
7 | O=[N+]([O-])c1cc([N+](=O)[O-])c(OC2CCCCC2O)c([N+](=O)[O-])c1 (stereo not given) | inactive: 0.665% [at 11.5 µM]
8 | CN(C)c1cccc(C(=O)NCC2(N3CCCCC3)CCCCC2)c1 | inactive: 0.0217%
9 | COc1ccc(CN(CCCl)CCCl)cc1Cl | inactive: 6.38%
10 | CC(C)c1ccc(NC2CCN(C(=O)OC(C)(C)C)CC2)cc1 | inactive: 0.887%
11 | CN1CCN(CCOC(=O)C(O)(c2ccccc2)c2ccccc2)CC1 | inactive: -2.88%
12 | COc1ccc(NC2CCN(C(=O)OC(C)(C)C)CC2)cc1 | inactive: 1.68%
13 | COc1cc(C(=O)NCC2(N3CCCCC3)CCCCC2)ccc1OC(F)F | inactive: 0.591%
14 | O=C(NCC1(N2CCOCC2)CCCCC1)c1cc(=O)[nH]c2ccccc12 | inactive: -11.7%
15 | O=C(NCC1(N2CCCCC2)CCCCC1)c1cccc(C(F)(F)F)c1 | inactive: 0.525%
16 | O=[N+]([O-])c1cc([N+](=O)[O-])c(NCC2CCS(=O)(=O)C2)c([N+](=O)[O-])c1 (stereo not given) | inactive: 7.18%
17 | O=C(NCC1(N2CCCCC2)CCCCC1)c1cccc([N+](=O)[O-])c1 | inactive: -4.09%
18 | N#CC1(Nc2ccccc2)CCN(CCc2ccccc2)CC1 | inactive: 4.05%
19 | CCN1CCC(Nc2ccc(Cl)cc2)CC1 | inactive: 5.12%
20 | O=C(NCC1(N2CCCCC2)CCCCC1)c1ccc(OC(F)F)cc1 | inactive: 5.11%
